Test system: db/db mice
Settings: db/db mice dorsal skin, vs before application

O=C(NC12CC3CC(CC(C3)C1)C2)N[C@H]1CC[C@H](Oc2ccc(C(=O)O)cc2)CC1 (relative stereo) [t-AUCB, trans-4-[4-(3-Adamantan-1-yl-ureido)-cyclohexyloxy]-benzoic acid]
thermal hyperemia 24 hours after application: returned to baseline values

From patent US20210378995A1, “METHODS AND TOPICAL PHARMACEUTICAL COMPOSITIONS FOR THE TREATMENT OF SKIN MICROVASCULAR DYSFUNCTION” (INSERM (INSTITUT NATIONAL DE LA SANTÉ ET DE LA RECHERCHE …, priority 2018, published 2021)
